Bioassay records deposited in PubChem BioAssay by ICCB-Longwood Screening Facility, Harvard Medical School.
Compounds with a hit are over-represented: about 0.43% of the library has one in this group of screens.
GIV-Gai inh – inhibitors of GIV peptide binding to Galpha-i3, primary screen, biochemical, fluorescence polarization, FITC-GIV GBA peptide, rat Galphai3 | 90 min; stronger effect = lower value; scaled: aluminum fluoride 0%, vehicle 100% | AID 1224905, 2016 | 210,000 compounds, 0.42% hits | percent of control (FP), % (concentration not given with the values) | Guanine nucleotide-binding protein G(i) subunit alpha-3 (Rattus norvegicus), P08753;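 active = replicate mean at 85% of control or lower, very high polarization wells dropped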;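 note: wells of about 15 µL received 100 nL stock; the first replicate is given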
HCMV UL50-53 inh – inhibitors of HCMV UL50-UL53 nuclear egress complex interaction; AID 1918969; inhibition, % (concentration not given with the values); HTRF UL50-UL53 interaction, normalized percent inhibition; 190,000 tested, 0.15% active; in the data active means inhibition above about 27%, passing the limit was not always enough
* hit, by the source's call; . = no result given.

Chains of the proteins cited; added tags and fusions are not shown.
Guanine nucleotide-binding protein G(i) subunit alpha-3 (Rattus norvegicus), P08753, UniProt P08753, whole entry, looked up: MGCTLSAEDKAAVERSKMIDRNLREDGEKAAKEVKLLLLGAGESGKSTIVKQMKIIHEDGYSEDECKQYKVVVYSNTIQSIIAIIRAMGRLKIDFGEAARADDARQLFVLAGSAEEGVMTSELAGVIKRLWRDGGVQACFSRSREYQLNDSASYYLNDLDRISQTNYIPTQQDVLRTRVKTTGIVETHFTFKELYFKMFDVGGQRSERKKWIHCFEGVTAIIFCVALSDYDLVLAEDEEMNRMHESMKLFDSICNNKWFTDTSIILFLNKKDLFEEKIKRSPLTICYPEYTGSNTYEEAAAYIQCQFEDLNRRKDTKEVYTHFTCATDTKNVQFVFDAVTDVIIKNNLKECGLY

#1 COc1ccccc1C(=O)Nc1nc2n(n1)C(c1ccc(F)cc1)C=C(c1ccc(Cl)cc1)N2 (configuration not stated)
  GIV-Gai inh: 124.8; HCMV UL50-53 inh: -34.9
#2 Cc1ccc(S(=O)(=O)Nc2nc3n(n2)C(c2ccc(Cl)cc2)C=C(c2ccc(Cl)cc2)N3)cc1 (configuration not stated)
  GIV-Gai inh: 113.2; HCMV UL50-53 inh: -20.0
#3 O=C(O)C1=C(CSc2nnnn2CS(=O)(=O)O)CS[C@@H]2C(NC(=O)[C@H](O)c3ccccc3)C(=O)N12 (some centres not stated)
  GIV-Gai inh: .; HCMV UL50-53 inh: -17.8
#4 COc1ccc(/C=C2\C=C(c3ccccc3)N(c3ccc(C)c(C)c3)C2=O)cc1Br
  GIV-Gai inh: 63.8*; HCMV UL50-53 inh: .
#5 COc1ccc(/C=C2\C=C(c3ccccc3)N(c3ccccc3)C2=O)cc1Br
  GIV-Gai inh: 114.9; HCMV UL50-53 inh: .
#6 Nc1cc(=O)[nH]c(SCC(=O)N2CCc3ccccc32)n1
  GIV-Gai inh: 104.2; HCMV UL50-53 inh: -10.5
#7 Cc1ccc(N=C2NC(=O)CC(C(=O)O)S2)cc1 (configuration not stated)
  GIV-Gai inh: 93.4; HCMV UL50-53 inh: -16.5
#8 CN1C(=O)c2cccc(NC(=O)CSc3ccc(F)cc3)c2C1=O
  GIV-Gai inh: 101.4; HCMV UL50-53 inh: -35.4
#9 CCNc1cccc2c1C(=O)N(C)C2=O
  GIV-Gai inh: 6.2*; HCMV UL50-53 inh: -67.5
#10 CCOC(=O)C1=C(C)NC2=C(C(=O)C(C(=O)OCC)C(c3ccc(OC)cc3)C2)C1c1sccc1C (configuration not stated)
  GIV-Gai inh: 101.7; HCMV UL50-53 inh: .

#11 CC(C)(C)c1ccc(C2Oc3ccccc3C3CC(c4ccc(Br)cc4)=NN32)cc1 (configuration not stated)
  GIV-Gai inh: 101.6; HCMV UL50-53 inh: 42.5*
#12 CC(C)c1ccc(C2Oc3ccccc3C3CC(c4ccc(Br)cc4)=NN32)cc1 (configuration not stated)
  GIV-Gai inh: 97.9; HCMV UL50-53 inh: -1.7
#13 COC(=O)c1c(NC(C)=O)c2c(C)c(C)sc2n1Cc1nc(-c2cccs2)oc1C
  GIV-Gai inh: 108.6; HCMV UL50-53 inh: .
#14 CCCCN1C(SCC(=O)NCCC)=NS(=O)(=O)c2ccccc21
  GIV-Gai inh: 103.9; HCMV UL50-53 inh: -16.2
#15 O=C(O)CSCc1nc2ccccc2[nH]c1=O
  GIV-Gai inh: 145.4; HCMV UL50-53 inh: 52.5*
#16 O=C(O)CSCc1nc2ccccc2[nH]1
  GIV-Gai inh: .; HCMV UL50-53 inh: -3.7
#17 COC(=O)CSc1nc2ccccc2[nH]1
  GIV-Gai inh: 99.8; HCMV UL50-53 inh: -43.4
#18 COC(=O)CSCc1nc2ccccc2[nH]c1=O
  GIV-Gai inh: 211.8; HCMV UL50-53 inh: 56.8*
#19 N#Cc1c2c(c(NCC3CCCO3)n3c1nc1ccccc13)CCCC2 (configuration not stated)
  GIV-Gai inh: 93.9; HCMV UL50-53 inh: -30.2
#20 O=C1NC(=Nc2ccc(F)cc2)S/C1=C/c1ccc(N2CCCC2)o1
  GIV-Gai inh: .; HCMV UL50-53 inh: -21.5

From entry 16 as far as 20, copied from above:
#16 O=C(O)CSCc1nc2ccccc2[nH]1
  GIV-Gai inh: .; HCMV UL50-53 inh: -3.7
#17 COC(=O)CSc1nc2ccccc2[nH]1
  GIV-Gai inh: 99.8; HCMV UL50-53 inh: -43.4
#18 COC(=O)CSCc1nc2ccccc2[nH]c1=O
  GIV-Gai inh: 211.8; HCMV UL50-53 inh: 56.8*
#19 N#Cc1c2c(c(NCC3CCCO3)n3c1nc1ccccc13)CCCC2 (configuration not stated)
  GIV-Gai inh: 93.9; HCMV UL50-53 inh: -30.2
#20 O=C1NC(=Nc2ccc(F)cc2)S/C1=C/c1ccc(N2CCCC2)o1
  GIV-Gai inh: .; HCMV UL50-53 inh: -21.5

(cont.)
#21 O=C1NC(=Nc2ccc(F)cc2)S/C1=C/c1ccc(N2CCCCCC2)o1
  GIV-Gai inh: -78.3*; HCMV UL50-53 inh: -28.1
#22 COc1ccc(S(=O)(=O)N2CCC3(CC2)Nc2ccccc2-n2cccc23)cc1OC
  GIV-Gai inh: 103.4; HCMV UL50-53 inh: 5.7
#23 COc1cc(CN2CCC3(CC2)Nc2ccccc2-n2cccc23)cc(OC)c1OC
  GIV-Gai inh: 97.1; HCMV UL50-53 inh: 60.2*
#24 Cn1c(=O)c(NC2CCCCC2)c2c3c(cccc31)C(=O)c1ccccc1-2
  GIV-Gai inh: 3.5*; HCMV UL50-53 inh: .
#25 CCNc1c2c3c(cccc3n(C)c1=O)C(=O)c1ccccc1-2
  GIV-Gai inh: .; HCMV UL50-53 inh: -16.8
#26 Cc1cccc(Nc2cc(NCc3ccccc3)c3noc4c3c2C(=O)c2ccccc2-4)c1
  GIV-Gai inh: 108.9; HCMV UL50-53 inh: .
#27 CCCCNc1cc(N2CCN(C3CCCCC3)CC2)c2noc3c2c1C(=O)c1ccccc1-3
  GIV-Gai inh: 228.9; HCMV UL50-53 inh: -42.7
#28 CCOC(=O)C1CCN(c2cc(NCC(=O)O)c3c4c(onc24)-c2ccccc2C3=O)CC1
  GIV-Gai inh: -57.3*; HCMV UL50-53 inh: -130.8
#29 CCNc1ccc2noc3c2c1C(=O)c1ccccc1-3
  GIV-Gai inh: -47.8*; HCMV UL50-53 inh: -187.5
#30 O=C1c2ccccc2-c2onc3c(Br)cc(NCc4ccccc4)c1c23
  GIV-Gai inh: -21.2*; HCMV UL50-53 inh: .

A few values from the entries so far.
#23 @ HCMV UL50-53 inh: 60.2*
#21 @ HCMV UL50-53 inh: -28.1
#26 @ GIV-Gai inh: 108.9
#25 @ HCMV UL50-53 inh: -16.8
#30 @ GIV-Gai inh: -21.2*
#27 @ GIV-Gai inh: 228.9

Later entries
#31 CCN1CCN(c2cc(NCC(=O)O)c3c4c(onc24)-c2ccccc2C3=O)CC1
  GIV-Gai inh: 108.1; HCMV UL50-53 inh: -71.9
#32 CCNc1cc(NCC)c2noc3c2c1C(=O)c1ccccc1-3
  GIV-Gai inh: 207.0; HCMV UL50-53 inh: -40.6
#33 CCOC(=O)N1CCN(c2cc(NCCC(=O)O)c3c4c(onc24)-c2ccccc2C3=O)CC1
  GIV-Gai inh: -78.9*; HCMV UL50-53 inh: .
#34 O=C1c2ccccc2S(=O)(=O)N1Cc1ccccc1
  GIV-Gai inh: 100.4; HCMV UL50-53 inh: -5.8
#35 Fc1ccccc1Nc1c2c(nc3ncnn13)CCC2
  GIV-Gai inh: 107.9; HCMV UL50-53 inh: -5.8
#36 Cc1csc(NC(=O)NCCCSc2ncccn2)n1
  GIV-Gai inh: 103.3; HCMV UL50-53 inh: .
#37 Cc1cc(C2CCCN2S(=O)(=O)c2ccc(Cl)cc2)on1 (configuration not stated)
  GIV-Gai inh: 99.9; HCMV UL50-53 inh: .
#38 O=C(NC1CC1)c1ccc(Nc2cc(-c3ccc(F)cc3)ncn2)cc1
  GIV-Gai inh: 103.8; HCMV UL50-53 inh: 16.3
#39 COc1ccc(-c2cc3c(c(=O)[nH]2)c(=O)oc2ccccc23)cc1
  GIV-Gai inh: 124.6; HCMV UL50-53 inh: .
#40 CCNc1cc(N2CCCCCC2)c2noc3c2c1C(=O)c1ccccc1-3
  GIV-Gai inh: -19.8*; HCMV UL50-53 inh: -68.6

#41 CCOC(=O)N1CCN(c2cc(NCCCC(=O)O)c3c4c(onc24)-c2ccccc2C3=O)CC1
  GIV-Gai inh: -74.2*; HCMV UL50-53 inh: -209.8
#42 CC(C)CNc1cc(N2CCCC2)c2noc3c2c1C(=O)c1ccccc1-3
  GIV-Gai inh: 133.1; HCMV UL50-53 inh: -35.3
#43 O=C(O)CCCNc1cc(N2CCCC2)c2noc3c2c1C(=O)c1ccccc1-3
  GIV-Gai inh: 111.2; HCMV UL50-53 inh: -30.1
#44 CC1CC(C)CN(C(=O)c2cc3sc(Cl)cc3n2C)C1 (configuration not stated)
  GIV-Gai inh: 104.7; HCMV UL50-53 inh: .
#45 CC(C)N=Cc1nc(-c2ccccc2)[nH]c1Cl
  GIV-Gai inh: 100.3; HCMV UL50-53 inh: -27.0
#46 CCO/C=C1/C(=O)N(c2ccc(Cl)cn2)C(=O)c2ccccc21
  GIV-Gai inh: .; HCMV UL50-53 inh: -21.6
#47 CCO/C=C1/C(=O)N(Cc2ccc(OC)cc2)C(=O)c2ccccc21
  GIV-Gai inh: .; HCMV UL50-53 inh: 57.4*
#48 CCO/C=C1/C(=O)NC(=O)c2ccccc21
  GIV-Gai inh: .; HCMV UL50-53 inh: 98.4*
#49 CCO/C=C1\C(=O)N(C)C(=O)c2ccccc21
  GIV-Gai inh: .; HCMV UL50-53 inh: 76.7*
#50 CCOc1ccc(/C=C2/C(=O)Nc3ccccc32)cc1
  GIV-Gai inh: .; HCMV UL50-53 inh: 10.2

Going on with the list:
Values run as follows: GIV-Gai inh | HCMV UL50-53 inh
51	O=C1c2ccccc2C(=O)N1Cc1ccccc1
 : 103.5 | -14.3
52	CCCCS(=O)(=O)N1CCC(c2cnn(-c3ccccc3)c2)CC1
 : 97.3 | .
53	CCc1c(C)c(C#N)c2[nH]c3ccccc3n2c1=O
 : 107.9 | .
54	O=c1[nH]c(Nc2ccccc2)cc2ccccc12
 : -60.5* | 110.4*
55	O=C(O)c1cc2ccccc2c(=O)[nH]1
 : 104.2 | -23.2
56	Oc1c(C(c2cccs2)N2CCCCC2)ccc2cccnc12 (configuration not stated)
 : . | -47.7
57	COc1cc(-c2nc(C=Nc3ccc(C)cc3Br)c(O)o2)cc(OC)c1OC
 : 110.0 | .
58	Cc1ccc(N=Cc2nc(-c3cccc4ccccc34)oc2O)c(Br)c1
 : 24.9* | .
59	O=S1(=O)C[C@H](NCC2CCCO2)[C@@H](S(=O)(=O)c2ccc(F)cc2)C1 (some centres not stated)
 : 102.1 | -28.2
60	N#C/C(=C\c1ccc(-c2ccccc2)o1)c1ccccc1
 : 136.8 | 9.0
61	N#C/C(=C\c1ccc(N2CCCC2)o1)c1ccccc1
 : -49.5* | -19.1
62	CSc1nnc(C2CCCN2CC(=O)NC(c2ccccc2)c2ccccc2)n1C (configuration not stated)
 : 97.5 | -10.4
63	COc1ccc(C2CC(=O)NC(SCC(=O)N3CCc4ccccc4C3)=C2C#N)cc1 (configuration not stated)
 : . | -13.6
64	O=c1oc2c(CN3CCCC3)c(O)ccc2cc1-c1ccccc1
 : 115.3 | .
65	CC1CCCN(Cc2c(O)ccc3cc(-c4nc5ccccc5s4)c(=O)oc23)C1 (configuration not stated)
 : -31.8* | -81.5
66	CCOc1cccc2cc(-c3nc4ccccc4s3)c(=O)oc12
 : 143.0 | .
67	CCN(CC)Cc1c(O)ccc2cc(-c3nc4ccccc4s3)c(=O)oc12
 : -18.2* | .
68	O=C(c1cc2cc(Br)ccc2oc1=O)N1CCSC1c1ccccc1Cl (configuration not stated)
 : 103.0 | -15.9
69	COc1ccc(C(=O)OCCN(C2=NS(=O)(=O)c3ccccc32)c2ccccc2)c(OC)c1
 : 110.2 | .
70	COc1cc2c(cc1OC)C(C)N(CCC(N)=O)CC2 (configuration not stated)
 : 100.4 | .
